## Apparent affinities of Ab-14 variants for a coronavirus HR2 peptide

The target is the same throughout: PDVDLGDISGINAS, from the HR2 region of SARS-CoV-2 spike.

Each scFv is VH, a (GGGGS)3 linker, VL, as in the parent Ab-14, and differs from it in the CDRs of the light chain only.
VH: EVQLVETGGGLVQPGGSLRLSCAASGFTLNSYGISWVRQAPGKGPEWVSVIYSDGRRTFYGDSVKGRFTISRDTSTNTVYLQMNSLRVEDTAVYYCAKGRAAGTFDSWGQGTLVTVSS
VL: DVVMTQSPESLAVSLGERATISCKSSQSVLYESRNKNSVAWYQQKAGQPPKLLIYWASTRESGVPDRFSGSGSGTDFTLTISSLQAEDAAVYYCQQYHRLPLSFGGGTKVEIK

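Phage display of a naive human antibody library on the peptide gave the parent. Library AAYL50 holds single substitutions and randomly drawn double and triple substitutions in the CDRs. In AlphaSeq, yeast of one mating type display the scFv and yeast of the other type display the target. Mating (16 h, 30 °C) was followed by selection of diploids and sequencing of their barcodes. A regression on co-assayed BCL2-family reference pairs converts the normalised counts of each replicate to an apparent Kd. Each pool was mated in three replicate cultures.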

The parent's light chain CDRs are KSSQSVLYESRNKNSVA, WASTRES, QQYHRLPLS; each variant's own CDRs replace them letter for letter.
Scale: log10 of Kd in nM, estimated from mating counts; low values are strong binders.
"n.d." marks a missing value. The strain was present, yet no cells mated with the target were sequenced in that replicate, which points to weak or no binding.

{"CDR-L1": "TTSQSVLYESRNKNSVA", "CDR-L2": "WASTRES", "CDR-L3": "QQYHRLPFS", "replicates, log10 nM": "1.34 / 1.42 / 1.54", "control signals": "1/9 (4.59)"}
{"CDR-L1": "KSSQSVLYESRNKNSVA", "CDR-L2": "WANTHIS", "CDR-L3": "QQYHRLPLS", "replicates, log10 nM": "3.39 / 3.44 / 3.41", "control signals": "3/9 (5.95)"}
{"CDR-L1": "KASQSVLYESRNKNSVA", "CDR-L2": "PASTRES", "CDR-L3": "QGYHRLPLS", "replicates, log10 nM": "3.99 / 3.57 / n.d.", "control signals": "7/9 (4.73)"}
{"CDR-L1": "KSSDSVLYESRNKNSIA", "CDR-L2": "WASTRES", "CDR-L3": "QQYHRLPVS", "replicates, log10 nM": "n.d. / n.d. / n.d.", "control signals": "1/9 (3.11)"}
{"CDR-L1": "KSSQSVEYESRNKNSVA", "CDR-L2": "DASTRES", "CDR-L3": "QLYHRLPLS", "replicates, log10 nM": "-0.58 / -0.14 / -0.44", "control signals": "1/9 (5.22)"}
{"CDR-L1": "KSSQSVLYYSRNKNSVA", "CDR-L2": "WASTRTS", "CDR-L3": "QFYHRLPLS", "replicates, log10 nM": "2.93 / n.d. / 3.13", "control signals": "1/9 (3.82)"}
{"CDR-L1": "KESQSVLAESRCKNSVA", "CDR-L2": "WASTRES", "CDR-L3": "QQYHRLPLS", "replicates, log10 nM": "2.56 / 2.53 / 2.71", "control signals": "4/9 (4.53)"}
{"CDR-L1": "KSSQSVLYESFNKNSVA", "CDR-L2": "WASMRES", "CDR-L3": "QQGHRLPLS", "replicates, log10 nM": "n.d. / n.d. / n.d.", "control signals": "2/9 (3.60)"}
{"CDR-L1": "YSSQSVLYESRNKNSVA", "CDR-L2": "CPSTRES", "CDR-L3": "QQYHRLPLS", "replicates, log10 nM": "5.06 / 4.27 / 3.93", "control signals": "3/9 (4.75)"}
{"CDR-L1": "KSSQSVLYESRNKNIVQ", "CDR-L2": "WASTRES", "CDR-L3": "QQYHRLPLG", "replicates, log10 nM": "n.d. / n.d. / n.d.", "control signals": "2/9 (5.20)"}
{"CDR-L1": "KSSQIVLYESRNNNSVA", "CDR-L2": "WASTRES", "CDR-L3": "QQYHRLPLS", "replicates, log10 nM": "3.40 / 2.78 / 3.20", "control signals": "0/9"}
{"CDR-L1": "KSFQSVLYESRNKNSVA", "CDR-L2": "WTSTREW", "CDR-L3": "QQYHRLPLS", "replicates, log10 nM": "n.d. / n.d. / n.d.", "control signals": "0/9"}
{"CDR-L1": "KSSQSVLYESRLKNSVL", "CDR-L2": "WASTRES", "CDR-L3": "QQYHRLLLS", "replicates, log10 nM": "n.d. / n.d. / n.d.", "control signals": "1/9 (5.55)"}
{"CDR-L1": "KSSQSVLYESRNKNSVA", "CDR-L2": "DASTRES", "CDR-L3": "QQYKRLPNS", "replicates, log10 nM": "n.d. / n.d. / n.d.", "control signals": "3/9 (4.37)"}
{"CDR-L1": "KSSQSVLYESRNKNSVA", "CDR-L2": "SDSTREQ", "CDR-L3": "QQYHRLPLS", "replicates, log10 nM": "0.42 / 0.75 / 0.53", "control signals": "2/9 (4.82)"}
{"CDR-L1": "LSSQSVLYESRLKNSVA", "CDR-L2": "WASTRES", "CDR-L3": "QQYHRLPLF", "replicates, log10 nM": "n.d. / 3.31 / n.d.", "control signals": "1/9 (4.50)"}
{"CDR-L1": "KSSQSVLAESRNKNSVA", "CDR-L2": "WASTRES", "CDR-L3": "QQMLRLPLS", "replicates, log10 nM": "n.d. / n.d. / n.d.", "control signals": "0/9"}
{"CDR-L1": "KSSQSVLYESRNGNSVA", "CDR-L2": "WASTRES", "CDR-L3": "QQYHRLPLS", "replicates, log10 nM": "1.22 / 1.33 / 1.32", "control signals": "3/9 (4.83)"}
{"CDR-L1": "KSSQSVLYESRNKNSHG", "CDR-L2": "WASTRES", "CDR-L3": "QQAHRLPLS", "replicates, log10 nM": "n.d. / 4.26 / n.d.", "control signals": "3/9 (5.09)"}
{"CDR-L1": "KSSQSQLYESRNKNSVA", "CDR-L2": "WASTIEE", "CDR-L3": "QQYHRLPLS", "replicates, log10 nM": "2.24 / 1.47 / 2.06", "control signals": "1/9 (3.17)"}
{"CDR-L1": "KSSQSVLYESMNKNSYA", "CDR-L2": "WALTRES", "CDR-L3": "QQYHRLPLS", "replicates, log10 nM": "n.d. / n.d. / n.d.", "control signals": "0/9"}
{"CDR-L1": "KSSQSVLYESRNKNSVA", "CDR-L2": "WASTREQ", "CDR-L3": "TQYHRLPPS", "replicates, log10 nM": "0.54 / 0.79 / 0.81", "control signals": "2/9 (4.84)"}
{"CDR-L1": "KSSQSVLYESRNKRSVA", "CDR-L2": "WASTRES", "CDR-L3": "QMWHRLPLS", "replicates, log10 nM": "n.d. / n.d. / n.d.", "control signals": "0/9"}
{"CDR-L1": "KYSQSNLYESRNKNSVA", "CDR-L2": "WASTRHS", "CDR-L3": "QQYHRLPLS", "replicates, log10 nM": "4.21 / 3.74 / n.d.", "control signals": "1/9 (3.38)"}
{"CDR-L1": "KSSQSVLYESRNKNSGA", "CDR-L2": "WASTRES", "CDR-L3": "AQYHRLPLN", "replicates, log10 nM": "n.d. / n.d. / n.d.", "control signals": "1/9 (3.03)"}
{"CDR-L1": "KCSQSVLSESRSKNSVA", "CDR-L2": "WASTRES", "CDR-L3": "QQYHRLPLS", "replicates, log10 nM": "n.d. / n.d. / n.d.", "control signals": "0/9"}
{"CDR-L1": "ASSQSVLYESRNKNSVA", "CDR-L2": "WASTRPS", "CDR-L3": "QQYHRGPLS", "replicates, log10 nM": "4.39 / n.d. / n.d.", "control signals": "0/9"}
{"CDR-L1": "CSSQSVLYESRNKNSVA", "CDR-L2": "WASTRES", "CDR-L3": "QQYPRLPLI", "replicates, log10 nM": "1.78 / 1.96 / 2.69", "control signals": "4/9 (3.89)"}
{"CDR-L1": "KSSQSVLYEICNKNSVA", "CDR-L2": "WDSTRES", "CDR-L3": "QQYHRLPLS", "replicates, log10 nM": "n.d. / 4.33 / 3.40", "control signals": "5/9 (5.29)"}

2 of these entries, quoted again:

{"CDR-L1": "KSSQSVLYESRNKNSGA", "CDR-L2": "WASTRES", "CDR-L3": "AQYHRLPLN", "replicates, log10 nM": "n.d. / n.d. / n.d.", "control signals": "1/9 (3.03)"}
{"CDR-L1": "TTSQSVLYESRNKNSVA", "CDR-L2": "WASTRES", "CDR-L3": "QQYHRLPFS", "replicates, log10 nM": "1.34 / 1.42 / 1.54", "control signals": "1/9 (4.59)"}

As a blank, each scFv also met three strains without target: over library AAYL50, 18% of these pairings were detected, typically at 4.19 and seldom below 2.99. The control count says in how many pairings with the empty strains this scFv gave a signal, with their mean in brackets.

The measurements come from Engelhart et al. 2022 (doi:10.1038/s41597-022-01779-4) through the FLAb antibody collection.